The values that follow come from PMC10987111, “Rational Identification of Novel Antibody‐Drug Conjugate with High Bystander Killing Effect against Heterogeneous Tumors” (Advanced Science, 2024).

Assay [1] relates to SKBR-3 cell-driven xenograft. The experiment in a line: HER2+ breast cancer (SKBR-3) xenograft model. It counts as in vivo, BALB/c nude mice. The note with it: single 10 mg kg^-1 dose, tail vein. On the procedure:
(§1) A suspension of 5 × 10^6 SKBR‐3 cells in 100 µL of 1: 1 PBS/Matrigel solution was injected subcutaneously into the armpit of female BALB/c nude mice aged 5–6 weeks (Day 0). On day 7, the tumors reached an average volume of ≈120 mm^3, mice were randomized to each group, and each drug or PBS was given to the mice at a single dose of 10 mg kg^−1 through injection via the tail vein, with a volume of 10 mL kg^−1. The size of the tumor and body weight were monitored twice a week. A suspension of 5 × 10^6 NCI‐N87 cells in 100 µL of PBS solution was injected subcutaneously into the flank of female BALB/c nude mice aged 5–6 weeks (Day 0). On day 7, the tumors reached an average volume of ≈110 mm^3, mice were randomized to each group, and each ADC was given to the mice at a single dose of 3 or 1 mg kg^−1 through injection via the tail vein, with a volume of 10 mL kg^−1. The size of the tumor and body weight were monitored three times a week. A suspension of 5 × 10^6 JIMT‐1 cells in 100 µL of 1: 1 PBS/Matrigel solution was injected subcutaneously into the flank of female BALB/c nude mice aged 4–5 weeks (Day 0). On day 11, the tumors reached an average volume of ≈100 mm^3, mice were randomized to each group, and each drug or PBS was given to the mice at a single dose of 5 mg kg^−1 through injection via the tail vein, with a volume of 10 mL kg^−1. The size of the tumor and body weight were monitored three times a week. The tumor volume was estimated on the mathematical formula, which is 1/2 × length × width^2. […] After the sacrifice of mice, the tumors were isolated and collected for IHC analysis performed by Haoke Biotechnology Co., Ltd.

Assay [2] has as its system NCI-N87 and MDA-MB-231/GFP co-culture system. The experiment in a line: In vitro co-culture model for bystander-killing evaluation. Type of assay: cell-based, human. The note with it: viability of MDA-MB-231/GFP in co-culture, especially cell ratio 1:5. How it is done: HER2‐positive cells (NCI‐N87 or SKBR‐3) and HER2‐negative cells (MDA‐MB‐231/GFP) were seeded in a clear bottom white 96‐well plate at 1000 cells per well and 2500 or 5000 cells per well (different ratios). After overnight incubation, a single concentration or a serially diluted solution of each ADC was added. Cell viability was evaluated after 120 h using the cell counting kit‐8 assay. The mixed cell viability was determined by CCK‐8 assay. The HER2‐negative cell viability was determined by detecting the GFP fluorescence intensity (Ex: 488 nm, Em: 507 nm) with a BioTek Synergy microplate reader. In the supernatant proliferation inhibition experiment, gradient concentrations of ADC were incubated with NCI‐N87 (4000 cells per well) for 48 h. Then the supernatant was incubated with MDA‐MB‐231 (3000 cells per well) for 72 h, and the cells viability were measured by CCK‐8 assay.

For assay [3], the system named is NCI-N87 cell-driven xenograft. Description: HER2+ NCI-N87 gastric cancer xenograft model. Type of assay: in vivo, BALB/c nude mice. The note with it: single intravenous dose 1 mg kg^-1. On the procedure:
A suspension of 5 × 10^6 SKBR‐3 cells in 100 µL of 1: 1 PBS/Matrigel solution was injected subcutaneously into the armpit of female BALB/c nude mice aged 5–6 weeks (Day 0). On day 7, the tumors reached an average volume of ≈120 mm^3, mice were randomized to each group, and each drug or PBS was given to the mice at a single dose of 10 mg kg^−1 through injection via the tail vein, with a volume of 10 mL kg^−1. The size of the tumor and body weight were monitored twice a week. A suspension of 5 × 10^6 NCI‐N87 cells in 100 µL of PBS solution was injected subcutaneously into the flank of female BALB/c nude mice aged 5–6 weeks (Day 0). On day 7, the tumors reached an average volume of ≈110 mm^3, mice were randomized to each group, and each ADC was given to the mice at a single dose of 3 or 1 mg kg^−1 through injection via the tail vein, with a volume of 10 mL kg^−1. The size of the tumor and body weight were monitored three times a week. A suspension of 5 × 10^6 JIMT‐1 cells in 100 µL of 1: 1 PBS/Matrigel solution was injected subcutaneously into the flank of female BALB/c nude mice aged 4–5 weeks (Day 0). […] The size of the tumor and body weight were monitored three times a week. […]

Assay [4] concerns JIMT-1 xenograft. The experiment in a line: JIMT-1 xenograft tumor model. The note with it: for tumor inhibitory effect: single dose 5 mg kg^-1, two weeks after administration. Type of assay: in vivo, BALB/c nude mice. How it is done: as §1
Assay [5] concerns NCI-N87 cells and MDA-MB-231/teLuc cells (2: 5 ratio) xenograft. Description: Xenograft mouse model of HER2-heterogeneous cancer (co-inoculation) with teLuc imaging. It counts as in vivo, BALB/c nude mice. Particulars: for luciferase-mediated bioluminescent signal: MDA-MB-231/teLuc cells, DTZ substrate; for regression of HER2-negative tumors: quantified average radiance. On the procedure: A mix suspension of 2 × 10^6 NCI‐N87 cells and 5 × 10^6 MDA‐MB‐231/teLuc cells in 100 µL of 1: 1 PBS/Matrigel solution was injected subcutaneously into the flank of female BALB/c nude mice aged 5–6 weeks (Day 0). On day 7, the tumors reached an average volume of ≈180 mm^3, mice were randomized to each group, and each ADC was given to the mice at a single dose of 5 or 2 mg kg^−1 through injection via the tail vein, with a volume of 10 mL kg^−1. The size of the tumor and body weight were monitored three times a week. The tumor volume was estimated on the mathematical formula, which is 1/2 × length × width^2. […] After the sacrifice of mice, the tumors and organs were isolated and collected for IHC analysis and H&E staining performed by Haoke Biotechnology Co., Ltd.
Teal luciferase activity of each mouse in the HER2‐heterogeneous xenograft model was determined by an in vivo Imaging System (IVIS) Spectrum CT (PerkinElmer, USA) once a week (Day 7, 14, 21, 35) 10 min after intraperitoneal injection of pre‐dissolved DTZ (MeisenCTCC). The amount of luminescence was analyzed using analysis software (Living Image Software version 4.3.1; PerkinElmer) as average radiance (p per s per cm^2 per sr).

Regarding trastuzumab, in assay [1], the “therapeutic effect (tumor)” value was “insignificant”.
As for T-VDXd, the “bystander-killing effect compared with T-DXd” value in assay [2] was “superior effects”.
Take T-VAEd9: in assay [1], the “therapeutic effect (tumor)” value is on record as “insignificant”.
Take T-DXd: the anti-tumor activity entry in assay [3] is listed as “only partial inhibition of tumor growth”. Also, the tumor inhibitory effect result in assay [4] is listed as “good tumor inhibitory effects”. For the same substance, in assay [5], the luciferase-mediated bioluminescent signal result is on record as “notable decrease” and the “regression of HER2-negative tumors” value is reported as “tumor regrowth after day 35”. The tumor volume change entry in assay [5] (single intravenous dose of 2 or 5 mg kg^-1) was “less effective”.
On to T-VEd9, for which the “bystander-killing effect compared with T-DXd” value in assay [2] is given as “more pronounced”. Further, in assay [1], the “therapeutic effect (tumor)” value was “curative”. For the same substance, the anti-tumor activity entry in assay [3] is on record as “significant potency”. Further, the tumor suppression result in assay [4] (single dose 5 mg kg^-1, end of the experiment) is reported as “significant tumor suppression”. Also, the tumor inhibitory effect entry in assay [4] is listed as “good tumor inhibitory effects”. In addition, the inhibition of tumour growth (TGI) (usually how far tumour growth fell short of that in controls) in assay [5] (HER2 heterogeneity model) was 99.3%. Besides, in assay [5], the luciferase-mediated bioluminescent signal result is given as “notable decrease” and the “regression of HER2-negative tumors” value is on record as “More complete regression”.
